Columns and labels:
[1] = biological target: Serine/threonine-protein kinase pim-1 (Homo sapiens, UniProt P11309); experiment: Inhibition of recombinant Pim1 (unknown origin) by electrochemiluminescence assay
[2] = biological target: Serine/threonine-protein kinase PIM (Homo sapiens, UniProt P11309+Q9P1W9+Q86V86); experiment: Inhibition of Pim1/2 in human KMS-12 cells assessed as decrease in BAD phosphorylation at Ser112 by Western blot method; type: cell-based

Protein sequences, listed by entry. Tags and fused reporters are not part of them. Lines headed by an entry give the natural chain unless they say otherwise; changes in a name come on top.
UniProt P11309, whole entry: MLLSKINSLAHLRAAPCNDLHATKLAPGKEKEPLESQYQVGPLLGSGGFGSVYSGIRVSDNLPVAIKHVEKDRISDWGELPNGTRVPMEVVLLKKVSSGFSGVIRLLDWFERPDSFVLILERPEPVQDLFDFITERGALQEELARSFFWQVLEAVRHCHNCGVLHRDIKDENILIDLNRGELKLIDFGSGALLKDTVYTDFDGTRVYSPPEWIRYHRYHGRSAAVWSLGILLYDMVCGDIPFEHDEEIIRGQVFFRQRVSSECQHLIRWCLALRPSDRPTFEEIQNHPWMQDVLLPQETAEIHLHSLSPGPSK
UniProt Q9P1W9: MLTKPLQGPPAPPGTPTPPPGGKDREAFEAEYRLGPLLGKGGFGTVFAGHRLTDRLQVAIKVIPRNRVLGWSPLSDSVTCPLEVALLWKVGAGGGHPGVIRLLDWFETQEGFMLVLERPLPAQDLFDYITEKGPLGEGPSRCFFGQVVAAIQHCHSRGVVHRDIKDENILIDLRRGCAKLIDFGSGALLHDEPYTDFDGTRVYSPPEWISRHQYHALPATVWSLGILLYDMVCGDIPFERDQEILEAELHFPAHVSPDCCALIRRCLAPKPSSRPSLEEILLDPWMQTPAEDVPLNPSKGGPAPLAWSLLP

Row | IC50 [1] | IC50 [2] | SMILES
1 | 0.062 nM | 221 nM | C[C@@H]1[C@@H](N)CCCN1c1ccncc1Nc1ncc2ccc(-c3c(F)cccc3F)nn12
2 | 0.51 nM | 2530 nM | C[C@H]1[C@@H](N)CCCN1c1ccncc1Nc1ncc2ccc(-c3c(F)cccc3F)nn12
3 | 10 nM |  | C[C@]1(N)CCCN(c2ccncc2Nc2ncc3ccc(-c4c(F)cccc4F)nn23)C1 (racemic)

Reference: ChEMBL document CHEMBL3864151, “Discovery of imidazopyridazines as potent Pim-1/2 kinase inhibitors” (Bioorg Med Chem Lett, 2016)
